# Measured values taken from patent publication US6610494B2, “Solid-phase activity assay for biologically active substance” (priority 1996, dated 2003).
# System: trypsin (EC 3.4.21.4)
# Experiment: BEISA: competition of inhibitors or other substances for biotinylated trypsin against coated ovomucoid
# Format: binding
# Experimental: Methods: NHS-biotin solution (5.5 mg in 200 ul dimethyl sulfoxide) and trypsin solution (15 mg in 1000 ul PBS) were mixed and reacted at room temperature for 3 hours with gently shaking. The unconjugated biotin was removed at 4° C. using minicon-15 concentrator (Amicon. Co.). The final volume was 1000 ul.
# The 96-well microtiter plate (Falcon 3911) was coated with trypsin egg white inhibitor (ovomucoid, 4 ug/100 ul/well) at […] overnight. The plate was washed once using PBST {[PBS, NaCl, 9.00; Na2HPO4, 1.15; NaH2PO4, 0.23 (g/l) pH 7.2] plus 0.05% Tween-20} and 200 ul of 5% skim milk was added to each well of the plate followed by incubation at 37° C. for 2 hours. The plate was rinsed twice with PBST and 50 ul of PBS was added to each well of the plate except for those in column one where 100 ul of PBS was added. Unlabelled trypsin (50 ul of 400 ug/ml) was added to the wells of the second column followed by successive double dilutions of trypsin in wells up to and including those in column 11. Biotinylated trypsin in PBS (50 ul of 1:3000 dilution of the stock to yield approximately 2 ug/100 ul/well) was added to each well except those in the first column followed by incubation at 37° C. for 1 hour. The final volume in each well was 100 ul. […] The absorbency was then read at 405 nm using a microplate reader (Bio-Rad laboratories Inc. Mississauga, ON, Canada, model 450). […]
substance,measurement,value
human serum albumin (HSA): other protein tested for interference,Interference with the binding of labelled trypsin to trypsin inhibitor,did not interfere
